Where a chain is given by its changes, count along the chain named.
How the values were obtained:
Type in all cases: cell-based
[1] = target: T1, Hv1 F149W/F150A (Homo sapiens, UniProt Q96D96, F149W/F150A); assay: Inhibition of proton currents, inside-out patch clamp, Hv1 F149W/F150A
T1 sequence (Q96D96 1-273 F149W/F150A): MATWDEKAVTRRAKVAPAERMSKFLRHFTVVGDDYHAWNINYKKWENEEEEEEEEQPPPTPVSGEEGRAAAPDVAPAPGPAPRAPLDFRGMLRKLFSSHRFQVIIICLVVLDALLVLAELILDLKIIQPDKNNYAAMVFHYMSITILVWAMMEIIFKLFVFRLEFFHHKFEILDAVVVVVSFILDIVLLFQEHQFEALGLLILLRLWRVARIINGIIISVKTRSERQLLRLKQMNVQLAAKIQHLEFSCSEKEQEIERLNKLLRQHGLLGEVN

[2] = target: T2, Hv1 F149A/F150A (Homo sapiens, UniProt Q96D96, F149A/F150A); assay: Inhibition of proton currents, inside-out patch clamp, Hv1 F149A/F150A
T2 sequence (Q96D96 1-273 F149A/F150A): T1 sequence (Q96D96 1-273 F149W/F150A) with W149A

[3] = target: T3, Hv1 F150A/F182A (Homo sapiens, UniProt Q96D96, F150A/F182A); assay: Inhibition of proton currents, inside-out patch clamp, Hv1 F150A/F182A
T3 sequence (Q96D96 1-273 F150A/F182A): T1 sequence (Q96D96 1-273 F149W/F150A) with W149F, F182A

[4] = target: T4, Hv1 F150A/F182W (Homo sapiens, UniProt Q96D96, F150A/F182W); assay: Inhibition of proton currents, inside-out patch clamp, Hv1 F150A/F182W
T4 sequence (Q96D96 1-273 F150A/F182W): T1 sequence (Q96D96 1-273 F149W/F150A) with W149F, F182W

[5] = target: T5, Hv1 F150A (Homo sapiens, UniProt Q96D96, F150A); assay: Inhibition of proton currents, inside-out patch clamp, Hv1 F150A
T5 sequence (Q96D96 1-273 F150A): T1 sequence (Q96D96 1-273 F149W/F150A) with W149F

IC50 [1]: 0.123 ± 0.006 µM | IC50 [2]: 0.014 ± 0.002 µM | IC50 [3]: 0.826 ± 0.022 µM | IC50 [4]: 0.033 ± 0.001 µM | IC50 [5]: 0.118 ± 0.007 µM
SMILES: N=C(N)Nc1nc2ccccc2[nH]1 [2GBI, 2-guanidinobenzimidazole]

— PMC8263924 (The Journal of General Physiology, 2021)
